Experimental data: article PMC9585939, “Unveiling a family of spiro-β-lactams with anti-HIV and antiplasmodial activity via phosphine-catalyzed [3+2] annulation of 6-alkylidene-penicillanates and allenoates” (Frontiers in Chemistry, 2022)

How the values were obtained:
[1] = system: HIV-2 03PTHCC19; details: CC50 in TZM-bl cells
Excerpt: (§1) The HIV-1 SG3.1 is a reference subtype B strain that uses the CXCR4 coreceptor. It was obtained by transfection of HEK293T cells with pSG3.1 plasmid using jetPRIME transfection reagent (Polyplus-transfection SA, Illkirch, France), according to the instructions of the manufacturer.
(§2) Briefly, TZM-bl cells were infected with 200 TCID50 of HIV-1 or HIV-2 in the presence of serial-fold dilutions of the compounds in the growth medium, supplemented with diethylaminoethyl-dextran (DEAE-dextran). After 48 h of infection, luciferase expression was quantified with Pierce Firefly Luc One-Step Glow Assay Kit (ThermoFisher Scientific, Rockford, United States), according to the instructions of the manufacturer. For each compound dilution, the assay was set up in triplicate wells. Virus controls, cell controls, and inhibitors controls (drugs with a known action against each virus) were employed.

[2] = system: HIV-1 SG3.1; details: CC50 in TZM-bl cells
Excerpt: as §1, §2

Compound | Therapeutic index (CC50/IC50) [1] | Therapeutic index (CC50/IC50) [2]
COc1ccc(COC(=O)C2=CCC3(C(=O)N4C(C(=O)OC(c5ccccc5)c5ccccc5)C(C)(C)SC43)C2C(=O)c2ccccc2)cc1 (stereo not shown) [Compound 9i, (1’R,2’R)-Benzhydryl spiro[(2-benzoyl-3-(4-methoxybenzyloxycarbonyl)cyclopent-3-ene)-1’,6-penicillanate]] | 322.34 | 2385.33
COc1ccc(COC(=O)C2=CCC3(C(=O)N4C(C(=O)OC(c5ccccc5)c5ccccc5)C(C)(C)SC43)C2C(=O)c2ccc(Cl)cc2)cc1 (stereo not shown) [Compound 14d, (1’R,2’R)-Benzhydryl spiro[(2-(4-chlorobenzoyl)-3-(4-methoxybenzyloxycarbonyl)cyclopent-3-ene)-1’,6-penicillanate]] | 2055.38 | 8906.67
CC1(C)SC2N(C(=O)C23CC=C(C(=O)OCc2ccccc2)C3C(=O)c2ccc(F)cc2)C1C(=O)OC(c1ccccc1)c1ccccc1 (stereo not drawn) [Compound 12a, (1′R,2′R)-benzhydryl spiro[(2-(4-fluorobenzoyl)-3-benzyloxycarbonylcyclopent-3-ene)-1′,6-penicillanate]] | 5285.45 | 3060.00
COc1ccc(COC(=O)C2=CCC3(C(=O)N4C(C(=O)OC(c5ccccc5)c5ccccc5)C(C)(C)SC43)C2C(=O)c2ccc(F)cc2)cc1 (stereo not drawn) [Compound 14a, (1′R,2′R)-benzhydryl spiro[(2-(4-fluorobenzoyl)-3-(4-methoxybenzyloxycarbonyl)cyclopent-3-ene)-1′,6-penicillanate]] | 5773.85 | 6255.00
CC1(C)SC2N(C(=O)C23CC=C(C(=O)OCC=Cc2ccccc2)C3C(=O)c2ccccc2)C1C(=O)OC(c1ccccc1)c1ccccc1 (stereo not shown) [Compound 9n, (1’R,2’R)-Benzhydryl spiro[(2-benzoyl-3-cinnamyloxycarbonylcyclopent-3-ene)-1’,6-penicillanate]] | 3893.13 | 3664.12
CC1(C)SC2N(C(=O)C23CC=C(C(=O)OCc2ccccc2)C3C(=O)c2ccc(Br)cc2)C1C(=O)OC(c1ccccc1)c1ccccc1 (stereo not shown) [Compound 12c, (1’R,2’R)-Benzhydryl spiro[(2-(4-bromobenzoyl)-3-benzyloxycarbonylcyclopent-3-ene)-1’,6-penicillanate]] | 591.61 | 1100.40
COc1ccc(COC(=O)C2=CCC3(C(=O)N4C(C(=O)OC(c5ccccc5)c5ccccc5)C(C)(C)SC43)C2C(=O)c2ccc(Br)cc2)cc1 (stereo not shown) [Compound 14g, (1’R,2’R)-Benzhydryl spiro[(2-(4-bromobenzoyl)-3-(4-methoxybenzyloxycarbonyl)cyclopent-3-ene)-1’,6-penicillanate]] | 1156.32 | 3353.33
CC1(C)SC2N(C(=O)C23CC=C(C(=O)OCC=Cc2ccccc2)C3C(=O)c2ccc(F)cc2)C1C(=O)OC(c1ccccc1)c1ccccc1 (stereo not shown) [Compound 14c, (1’R,2’R)-Benzhydryl spiro[(2-(4-fluorobenzoyl)-3-cinnamyloxycarbonylcyclopent-3-ene)-1’,6-penicillanate]] | 1990.00 | 5174.00
